# Data reported in published antibiotic growth screens (doi:10.1038/s41589-023-01349-8).
# This is one part of the list.
# Test system: A. baumannii ATCC 17978
# Test: relative growth (fraction of control); higher = less inhibition
# Details: 50 µM
row,Structure (SMILES),relative growth
1,CN(C)Cc1cn(CC[C@@H]2CC[C@@H](NS(=O)(=O)c3ccccc3)[C@H](CO)O2)nn1,1.02
2,COC(=O)[C@@H]1C[C@H](C#N)N[C@@H]1c1ccccn1,0.95
3,CCn1cc(C(=O)O)c(=O)c2cc(F)c(N3CCNCC3)nc21,0.155
4,C[C@H]1CN([C@@H](C)CO)S(=O)(=O)c2ccc(-c3ccc(F)cc3)cc2O[C@@H]1CN(C)C(=O)C1CCOCC1,0.967
5,O=C(C[C@H]1C[C@@H]2c3cc(NC(=O)c4ccc5c(c4)OCO5)ccc3O[C@@H]2[C@H](CO)O1)NCc1ccccn1,1.05
6,CC[C@@H](N)Cn1c(=O)oc2ccccc21,0.868
7,O=C(N[C@@H]1CC[C@H](CCn2cc(C3(O)CCCC3)nn2)O[C@@H]1CO)C1CCOCC1,0.999
8,CCOC(=O)C1CCN(S(=O)(=O)c2c(C)n(C)c(=O)n(C)c2=O)CC1,0.849
9,CN1C(=O)c2cc(NC(=O)C3CCC3)ccc2OC[C@H]2O[C@@H](CC(=O)NCCc3ccncc3)CC[C@H]21,1.12
10,CC(C)C#Cc1ccc2c(c1)O[C@@H](CN(C)C(=O)c1cnccn1)[C@@H](C)CN([C@H](C)CO)S2(=O)=O,1
11,C[C@H]1CN([C@@H](C)CO)C(=O)c2cc(C#Cc3ccc(F)cc3)cnc2O[C@@H]1CN(C)Cc1ccccn1,0.959
12,COCC#Cc1ccc2c(c1)O[C@H](CN(C)Cc1ccc(F)cc1)[C@@H](C)CN([C@@H](C)CO)S2(=O)=O,1.21
13,CC(CCC(=O)O)[C@H]1CCC2C3C[C@H](O)[C@@H]4C[C@H](O)CC[C@]4(C)C3CC[C@@]21C (stereo partly drawn) [alpha-HYDROXYDEOXYCHOLIC ACID],1.2
14,O=C(CN1CCOCC1)N[C@@H]1CC[C@H](CCNS(=O)(=O)c2ccccc2F)O[C@H]1CO,0.842
15,C/C=C/c1ccc2c(c1)O[C@@H](CN(C)S(=O)(=O)c1ccccc1OC)[C@@H](C)CN([C@@H](C)CO)S2(=O)=O,1.08
16,CO[C@H]1CN(C)C(=O)c2ccc(NC(=O)C3CCOCC3)cc2OC[C@@H](C)N(Cc2cccnc2)C[C@H]1C,1.28
17,O=S1(=O)[C@@H]2C[C@H]3C=CC2(CN1C1CC1)O3,1.01
18,CCCCC(=O)N1c2ccccc2[C@H](Nc2ccccc2)C[C@@H]1C,0.645
19,CC(C)[Si](C#C[Si](C(C)C)(C(C)C)C(C)C)(O[C@H](C)c1cn(Cc2cccc(Cl)c2)nn1)C(C)C,0.76
20,O=C(C[C@H]1CC[C@H](NC(=O)CN2CCOCC2)[C@H](CO)O1)NCCc1ccncc1,1.09
21,CS(=O)(=O)CS(=O)(=O)C1=C(N2CCOCC2)C2CCN1CC2,1.02
22,COC(=O)C[C@H]1CC[C@H]2[C@@H](COC[C@H](O)CN2S(=O)(=O)c2ccccc2C)O1,0.941
23,C=CC(C)(O)CCC=C(C)CCC=C(C)C (mixture of isomers),0.85
24,Cc1ccc(-c2csc(-c3ccc(C(F)(F)F)cc3)n2)cc1,0.887
25,CC(=O)O[C@@H]1[C@@H]2C[C@@H]([C@H]1OC(C)=O)[C@@H]1C(=O)N(C)C(=O)[C@@H]21,1.03
26,CN1CCN(C(=O)C[C@@H]2C=C[C@@H](NC(=O)c3ccc4c(c3)OCO4)[C@@H](CO)O2)CC1,1.13
27,CC(C)(O)[C@@H]1CC[C@](C)([C@H]2[C@@H](O)C[C@@]3(C)C4C[C@H](O[C@@H]5O[C@H](CO)[C@@H](O)[C@H](O)[C@H]5O)C5C(C)(C)[C@@H](O[C@@H]6OC[C@@H](O)[C@H](O)[C@H]6O)CC[C@@]56C[C@@]46CC[C@]23C)O1 (stereo not given in full),1.03
28,O=C1C(Cl)=C2OC[C@@]2(O)C[C@@H]2CCCN12,0.98

row,Structure (SMILES),relative growth
1,CC(C(=O)O)c1cccc(Oc2ccccc2)c1 (stereo not given),1.02
2,c1ccc(-c2nn(-c3ccccc3)c3c2cnc2ccccc23)cc1,1.05
3,Clc1ccc(-c2cc[nH]n2)cc1,0.818
4,C[C@H]1CN([C@@H](C)CO)S(=O)(=O)c2ccc(C#Cc3cccnc3)cc2O[C@H]1CN(C)C(=O)CN(C)C,1.07
5,COc1ccc2c(C)cc(=O)oc2c1,0.956
6,O=C1OC(c2ccc(O)cc2)(c2ccc(O)cc2)c2ccccc21,1.11
7,COc1cc(C(=S)N2CCOCC2)ccc1O,1.05
8,COc1cc(OC)c2c(=O)cc(-c3ccccc3)oc2c1,1.1
9,C[C@@H]1CN([C@@H](C)CO)S(=O)(=O)c2ccc(C#CCN(C)C)cc2O[C@H]1CN(C)C(=O)Nc1ccccc1F,0.976
10,CCS(=O)(=O)NCC[C@H]1CC[C@H](NC(=O)Cc2ccccn2)[C@@H](CO)O1,1.01
11,CN(C)C(=O)C[C@H]1CC[C@@H](NC(=O)C2CC2)[C@H](CO)O1,1.04
12,COc1ccc(-c2ccccn2)cc1,0.889
13,Nc1cccc(-n2cc(CCC(=O)NO)nn2)c1,1.09
14,COc1cccc(S(=O)(=O)N[C@@H]2CC[C@H](CCn3cc(-c4ccccc4OC)nn3)O[C@@H]2CO)c1,0.903
15,O=C(CN1CCOCC1)NCC[C@H]1CC[C@H](NS(=O)(=O)c2ccc(Cl)cc2)[C@H](CO)O1,1.09
16,CCCCCCCCCCCCC[N+](C)(C)Cc1ccccc1.O.[Cl-],0.197
17,CC(C)CC#Cc1ccc2c(c1)O[C@@H](CN(C)Cc1cncnc1)[C@@H](C)CN([C@@H](C)CO)S2(=O)=O,0.815
18,O=C1NCC(=O)N2[C@@H]1C[C@@H](C(=O)O)[C@H]2c1ccc(O)cc1,0.959
19,Cn1cnc(S(=O)(=O)N[C@@H]2CC[C@H](CC(=O)NCC3CC3)O[C@H]2CO)c1,0.97
20,CO[C@H]1CN(C)C(=O)c2ccc(NS(=O)(=O)c3ccccc3)cc2OC[C@H](C)N(C(=O)NC(C)C)C[C@H]1C,1.15
21,O=C(CN1CCOCC1)NCC[C@H]1CC[C@H](NS(=O)(=O)c2ccc(Cl)cc2)[C@@H](CO)O1,1.07
22,COc1cc(C)c(C(=O)O)c(O)c1,0.975
23,C=CCNc1ncnc2c1cnn2C,1.17
24,CC(=C\c1ccccc1)/C(C)=N/O,0.91
25,Cc1cccc(S(=O)(=O)N2C[C@@H](O)COC[C@H]3O[C@H](CC(=O)NCc4ccc5c(c4)OCO5)CC[C@@H]32)c1,0.883
26,CN(C)CC(=O)N[C@H]1CC[C@@H](CCNS(=O)(=O)c2ccccc2)O[C@@H]1CO,0.983
27,CC(=O)Nc1c(O)[nH]c(SCC(=O)N2CCOCC2)nc1=O,1.08
